Laboratory results published in patent US10669272B2, “Substituted naphthyridinone compounds useful as T cell activators” (BRISTOL-MYERS SQUIBB COMPANY, priority 2018, dated 2020).

By UniProt entry, the sequences of proteins in these tests, tags left out. Chains listed by the source or under a name are the forms on record and can include a tag or linker.
UniProt P23743, with tags, fused parts or gaps: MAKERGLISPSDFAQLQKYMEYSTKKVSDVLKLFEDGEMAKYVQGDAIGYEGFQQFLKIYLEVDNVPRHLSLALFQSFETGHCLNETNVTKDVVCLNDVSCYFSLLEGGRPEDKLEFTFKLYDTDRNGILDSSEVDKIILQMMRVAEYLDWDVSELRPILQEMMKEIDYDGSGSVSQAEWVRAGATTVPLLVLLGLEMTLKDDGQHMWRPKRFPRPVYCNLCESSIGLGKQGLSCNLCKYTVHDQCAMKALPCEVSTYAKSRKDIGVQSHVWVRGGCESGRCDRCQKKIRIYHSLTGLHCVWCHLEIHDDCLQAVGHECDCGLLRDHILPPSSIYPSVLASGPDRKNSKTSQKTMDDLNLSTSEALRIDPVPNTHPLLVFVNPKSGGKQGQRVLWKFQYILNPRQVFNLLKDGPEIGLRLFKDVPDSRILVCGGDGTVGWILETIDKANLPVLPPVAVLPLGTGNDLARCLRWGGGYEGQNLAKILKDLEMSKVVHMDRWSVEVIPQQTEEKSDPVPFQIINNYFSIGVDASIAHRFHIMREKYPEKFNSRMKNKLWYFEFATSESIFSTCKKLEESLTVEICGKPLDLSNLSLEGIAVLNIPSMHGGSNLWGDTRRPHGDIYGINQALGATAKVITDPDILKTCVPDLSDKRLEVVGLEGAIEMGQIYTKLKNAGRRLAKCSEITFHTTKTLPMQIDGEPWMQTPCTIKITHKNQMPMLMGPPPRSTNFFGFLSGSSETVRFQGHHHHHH

Target: T1, human DGKα (Homo sapiens, UniProt P23743)
T1 construct: TVMV protease cleavage site (C); Hexa-His (C); made in house; host or cells: Sf9 insect cells (baculovirus, Bac-to-Bac)
Experiment: DGKα LIPGLO assay (extruded liposome substrate), in vitro DGK inhibition
Type: biochemical
Settings: DGKa LIPGLO IC50, liposome (LIPGLO) assay

Compound `CC[C@H]1CN(C(c2ccc(F)cc2)c2ccc(F)cc2)CCN1c1cc(=O)n(C)c2ccc(C#N)nc12` [Example 127, (S)-8-(4-(bis(4-fluorophenyl)methyl)-2-ethylpiperazin-1-yl)-5-methyl-6-oxo-5,6-dihydro-1,5-naphthyridine-2-carbonitrile] has an IC50 of 1500 nM.
